Data: ChEMBL document CHEMBL6078716, “Advances in Psychedelic Therapeutics: Novel Prodrugs and Derivatives for Enhanced Mental Health Treatment” (ACS Med Chem Lett, 2024)

The chains behind the UniProt entries cited, without tags or fusion partners.
UniProt P41595, whole entry: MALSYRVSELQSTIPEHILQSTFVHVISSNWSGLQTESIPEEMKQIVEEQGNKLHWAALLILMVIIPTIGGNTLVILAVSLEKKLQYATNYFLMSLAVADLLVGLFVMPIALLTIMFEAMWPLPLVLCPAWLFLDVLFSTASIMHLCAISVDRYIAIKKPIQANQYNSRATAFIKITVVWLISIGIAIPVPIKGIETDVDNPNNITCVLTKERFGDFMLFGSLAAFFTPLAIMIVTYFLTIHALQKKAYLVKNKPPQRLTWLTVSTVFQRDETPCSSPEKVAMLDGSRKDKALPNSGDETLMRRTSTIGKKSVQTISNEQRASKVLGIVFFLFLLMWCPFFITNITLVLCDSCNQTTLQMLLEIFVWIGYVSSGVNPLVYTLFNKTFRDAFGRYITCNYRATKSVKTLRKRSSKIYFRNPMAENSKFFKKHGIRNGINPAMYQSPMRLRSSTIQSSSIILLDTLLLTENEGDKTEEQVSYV

Target: 5-hydroxytryptamine receptor 2B (Homo sapiens, UniProt P41595)
Test: Binding affinity to 5-HT2B receptor (unknown origin) expressed in HEK293 cells assessed as inhibition constant
Format: cell-based

SMILES: CN(C)CCc1c[nH]c2cccc(OP(=O)(O)O)c12 [PSILOCYBIN]
- Ki: > 10 µM
